For one compound, Ki results are on record in BindingDB's records for 15454240.

Chains of the proteins cited; added tags and fusions are not shown. Lines headed by an entry give the natural chain unless they say otherwise; changes in a name come on top. Residues count along the entry.
UniProt P00915, 2-261 limits assumed: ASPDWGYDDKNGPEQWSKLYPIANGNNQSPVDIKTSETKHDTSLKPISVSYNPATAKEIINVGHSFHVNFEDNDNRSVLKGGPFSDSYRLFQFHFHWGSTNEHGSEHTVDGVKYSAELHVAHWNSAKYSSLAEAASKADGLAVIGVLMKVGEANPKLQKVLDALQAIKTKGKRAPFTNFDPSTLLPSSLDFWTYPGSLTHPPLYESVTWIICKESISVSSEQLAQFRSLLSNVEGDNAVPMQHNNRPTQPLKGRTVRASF
UniProt Q9D6N1: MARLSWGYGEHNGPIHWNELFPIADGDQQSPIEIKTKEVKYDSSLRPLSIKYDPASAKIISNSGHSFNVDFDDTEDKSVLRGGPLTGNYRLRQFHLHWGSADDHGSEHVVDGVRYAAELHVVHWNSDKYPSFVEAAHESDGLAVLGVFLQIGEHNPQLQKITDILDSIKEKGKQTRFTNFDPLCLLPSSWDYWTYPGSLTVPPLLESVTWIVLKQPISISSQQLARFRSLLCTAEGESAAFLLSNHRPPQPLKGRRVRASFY

A word on the Ki: it is the equilibrium dissociation constant of an inhibitor or competing ligand from its target. Low readings indicate tighter binding, high ones weaker binding.

One assay concerns the target Carbonic anhydrase 2 (Homo sapiens, UniProt P00918).
A further assay addresses Carbonic anhydrase 1 (Homo sapiens, UniProt P00915). Put plainly: Inhibitory activity against human carbonic anhydrase I expressed in Escherichia coli.
For another assay, the target named is Carbonic anhydrase 13 (Mus musculus, UniProt Q9D6N1).

With `O[As](O)Oc1ccccc1`, the Ki at Carbonic anhydrase 2 was determined as 49.2 mM; on Carbonic anhydrase 1, 31.7 mM; on Carbonic anhydrase 13, 1.65 mM.
